The data set in a line: Solubility of drug in menthol melt. The format is physicochemical. As to conditions: 70 °C.

Structures are written as SMILES.

Regarding `Cc1nc2n(c(=O)c1CCN1CCC(c3noc4cc(F)ccc34)CC1)CCCC2` [Risperidone], the Solubility was 8.3 % w/w.

The record behind these values is US20080057129A1, “Drug microparticles” (priority 2006, published 2008).
